Patent US11059822B2, “MAGL inhibitors” (H. LUNDBECK A/S, priority 2016, dated 2021)

Sequences of proteins named here, by UniProt entry; tags and fusion partners are left off.
UniProt O35678, whole entry: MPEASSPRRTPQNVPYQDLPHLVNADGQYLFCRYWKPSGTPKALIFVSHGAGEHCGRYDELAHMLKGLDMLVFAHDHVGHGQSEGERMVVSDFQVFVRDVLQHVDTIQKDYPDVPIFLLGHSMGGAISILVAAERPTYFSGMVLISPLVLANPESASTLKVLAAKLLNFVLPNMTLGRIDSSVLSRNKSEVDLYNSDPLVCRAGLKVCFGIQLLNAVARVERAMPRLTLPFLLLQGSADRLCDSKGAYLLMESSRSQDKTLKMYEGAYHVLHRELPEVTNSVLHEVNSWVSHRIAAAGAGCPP

Target: MAGL (Mus musculus (Mouse), UniProt O35678)
Experiment: in vivo
Conditions: po, read-out: MAGL % inh. 5 mg/kg (mouse)

inhibition at 5 mg/kg: > 75%
Structure (SMILES): O=C(O)CCNc1cc(Cl)cc(CN2CCCC23CCN(C(=O)OC(C(F)(F)F)C(F)(F)F)CC3)c1 [Example 12, 3-((3-Chloro-5-((8-(((1,1,1,3,3,3-hexafluoropropan-2-yl)oxy)carbonyl)-1,8-diazaspiro[4.5]decan-1-yl)methyl)phenyl)amino)propanoic acid]
